Bioassay records deposited in PubChem BioAssay by National Center for Advancing Translational Sciences (NCATS).
In the library only some 3.7% were active in any assay of this set; here they are far more common.
miR-21 reporter – raises the signal of a miR-21 reporter | HeLa miR-21 FLuc reporter, luciferase, 48 h | Potency, µM (doses to about 38.3 µM), without a hit: at the top dose reporter change, positive = more light | 340,000 tested, under 10 active | AID 2288; active = well fitted rising curve with a large enough effect; inconclusive = small, poorly fitted or top-dose-only effect; inactive = no such curve, though single readings can be large or run the other way;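 note: % of control where 0% means no effect; miR-21 action dims this reporter so a rising signal means less miR-21 action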
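Using DMEM plus 10% FBS, HeLa miR-21-FLuc cells are incubated with test compounds (final up to about 40uM) for 48 hours; firefly luciferase signal is then imaged following reagent-mediated lysis.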
A549 tox – A549 cytotoxicity, counter-screen for Nrf2 inhibitors | A549 ARE-Fluc cells, CellTiter-Fluor viability, 18-24 h | Potency, µM (top dose mostly 46 µM), for inactives: top-dose activity change, negative = cytotoxicity, most hits filed as inhibitors | 0.16% of 390,000 active | AID 504648; note: potency is the fitted concentration of half-maximal effect; % is set by controls: 0 for no effect and ±100 for the full control effect
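A549 ARE-Fluc cells in 5% FBS OPTI-MEM, 5000 cells/well, rested 2 h then exposed to compounds in concentration-response for 18-24 h at 37 °C. Viability by CellTiter-Fluor fluorescence (Ex 405/Em 525) after 30 min; luciferase luminescence (BugLite, 15 min, RT) read afterwards.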
Nrf2 inh – inhibitors of Nrf2 signaling | A549 ARE-Fluc reporter, luciferase luminescence, 18-24 h | Potency, µM (series often up to 46 µM), without a hit: at the top dose activity change, negative = inhibition, hits mostly inhibitors | 2.1% of 360,000 active | AID 504444; note: potency is the fitted concentration of half-maximal effect; % is set by controls: 0 for no effect and ±100 for the full control effect; nearly all actives have a fitted effect of over 60% in size
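In this cell-based qHTS, ARE-driven firefly luciferase in A549 cells reports Nrf2 activity; the luminescent signal after BugLite lysis is the measured value, with a prior CellTiter-Fluor read for cell health.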
p53 reactivation – restores transcriptional activity of mutant p53. H1299 p53-A138V BP100-luciferase reporter, luminescence, 24 h. Potency, µM (top dose mostly 92.2 µM), without a hit: top-dose activity change, positive = activation, most hits filed as activators. 0.063% of 320,000 active. AID 504706; note: potency is the fitted concentration of half-maximal effect; % of control where 0% means no effect; nearly all actives have a fitted effect of over 45% in size
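H1299 (p53-null), stable ts p53-A138V + BP100-Luc; 1000 cells/well, Opti-MEM/10% FBS; cpd 4 pt, 1:5; 24 h, 37 deg C, 5% CO2; detection reagent 10 min RT; luminescence.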
Nrf2 activator – activates Nrf2 signaling; AREc32 ARE-luciferase reporter (MCF7-derived line), luminescence, 24 h; Potency, µM (series often up to 46.1 µM), for the others: at the top dose activation, hits mostly activators; 0.31% of 410,000 active; AID 624171; note: potency is the fitted concentration of half-maximal effect; % of control where 0% means no effect; nearly all actives have a fitted effect of over 65% in size
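AREc32 cells carrying an ARE-driven firefly luciferase reporter were seeded at 1000 cells/well in OPTI-MEM with 5% FBS, then exposed to compound for 24 hr at 37 deg C. Luminescence was read with Steady-Glo after 30 min at RT.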
ClpP mod – qHTS Assay for Activators of ClpP | 1.9% of 340,000 active | purified B. subtilis ClpP, FRET peptide cleavage, 20 min | AID 651965, 2013 | Potency, µM (top dose mostly 57.5 µM), for the others: at the top dose activity change, negative = active; active = well fitted falling curve with a large enough effect; inconclusive = small, poorly fitted or top-dose-only effect; inactive = no such curve, though single readings can be large or run the other way; note: potency is the fitted concentration of half-maximal effect; the source files actives as falling curves though it sought activators and does not explain the sign; nearly all actives have a fitted effect of over 65% in size
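Buffer: 100 mM Tris/HCl pH8, 100 mM KCl, 0.05% low protease BSA, 2.5% glycerol, 0.01% Tween-20. ClpP 10 microg/mL final; 20 min RT; delta FRET normalized to ADEP and DMSO controls.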
The depositor's hits bear a star; u = inconclusive; x = no result; ! = not active in a repeat; [ ] = remark or other dose. Unless noted, calls come from the whole dose curve; as a rule, active = well fitted curve in the direction sought with a large enough effect; inconclusive = small, poorly fitted or top-dose-only effect, or another doubt; inactive = no such curve, though single readings can be large; an effect the other way counts as inactive or inconclusive.

Letters: A = miR-21 reporter; B = A549 tox; C = Nrf2 inh; D = p53 reactivation; E = Nrf2 activator; F = ClpP mod
(1) CC(C)(C)c1ccc(C(=O)Nc2ccc3nc(SCC(=O)N4CCCC4)sc3c2)cc1
  A = u | B = u | C = 15µM* | D = x | E = -3% | F = u

(2) O=C(CN1CCOCC1)c1ccc2ccccc2c1
  A = x | B = x | C = x | D = x | E = x | F = -12%

(3) CC12CN3CC(C)(CN(C1)P3(=O)Oc1ccccc1)C2=O (configuration not stated)
  A = -6% | B = -4% | C = 5% | D = 3% | E = -1% | F = -1%

(4) CC12CN3CC(c4ccccc4)(CN(C1)C31CCCCC1)C2=O
  A = 0% | B = -2% | C = 14% | D = 0% | E = 0% | F = 13µM*

(5) O=C(CSC1c2ccccc2-c2ccccc21)N/N=C/c1ccccc1O
  A = 22% | B = 21µM* | C = 5.2µM* | D = u | E = 4% | F = -2%

(6) O=C(CSC1c2ccccc2-c2ccccc21)N/N=C/c1ccc(C(=O)O)cc1
  A = -8% | B = -3% | C = 1% | D = -3% | E = 0% | F = x

(7) CN(C)c1ccc(N=O)cc1
  A = x | B = x | C = x | D = x | E = x | F = 1%

(8) CC(=O)O[C@@H]1CC[C@]2(C)C3CC[C@@]4(C)C(C[C@@H](O)[C@@H]4O)C3[C@@H](OC(C)=O)C[C@H]2C1 (some centres not stated)
  A = x | B = -1% | C = -20% | D = -1% | E = 0% | F = x

(9) CC(=O)OC1CCC2(C)C(CCC3C2CC(=O)C2(C)C3CC(N3CC3)C2C(C)=O)C1 (configuration not stated)
  A = x | B = 18µM* | C = 14% | D = x | E = u | F = -3%

(10) Nc1nc(F)nc2c1ncn2[C@@H]1O[C@H](CO)[C@@H](O)[C@H]1O
  A = x | B = u | C = 0.92µM* | D = x | E = -2% | F = 1%

(more compounds)
Letters: A = miR-21 reporter; B = A549 tox; C = Nrf2 inh; D = p53 reactivation; E = Nrf2 activator; F = ClpP mod
(11) Fc1ccc([C@@H]2CCNC[C@H]2COc2ccc3c(c2)OCO3)cc1
  A = u | B = u | C = -3% | D = -15% | E = -4% | F = 0%

(12) CCC(C)OC(=O)c1c(N)n(Cc2cccs2)c2nc3ccccc3nc12 (configuration not stated)
  A = 1% | B = u | C = u | D = -4% | E = -1% | F = 14µM*

(13) Nc1c(C(=O)OCc2ccccc2)c2nc3ccccc3nc2n1Cc1cccs1
  A = 13% | B = u | C = 23µM* | D = 4% | E = 9% | F = 28µM*

(14) ClC1=C(Cl)C(Cl)=C(Cl)C1=C/C=C/c1ccccc1
  A = 1% | B = u | C = u | D = u | E = u | F = -1%

(15) O=C(CN1CCOCC1)c1cccc([N+](=O)[O-])c1
  A = x | B = x | C = x | D = x | E = x | F = -5%

(16) Cc1cc(C)cc(N2C(=O)NC(=O)/C(=C\C=C\c3ccco3)C2=O)c1
  A = 25% | B = u | C = u | D = -25% | E = u | F = 16µM*

(17) CC1=NN(c2ccccc2)C(=O)C1/C=C1\C(=O)NC(=O)N(c2cc(C)cc(C)c2)C1=O (configuration not stated)
  A = -3% | B = -12% | C = 9% | D = -4% | E = 3% | F = 25µM*

(18) C[C@@H](C1CC[C@@]2(O)C3=CC(=O)[C@@H]4C[C@@H](O)[C@@H](O)C[C@]4(C)[C@H]3CC[C@]12C)[C@H](O)CCC(C)(C)O (some centres not stated)
  A = x | B = 6% | C = 19% | D = x | E = x | F = x

(19) O=C(CSc1nc(-c2cccs2)nc2cc(=O)[nH]n12)Nc1ccc(F)cc1
  A = -1% | B = -6% | C = 12% | D = x | E = u | F = 0%

(20) c1ccc(CCCN2CCN(CCOC(c3ccccc3)c3ccccc3)CC2)cc1
  A = x | B = -8% | C = 0% | D = x | E = -1% | F = 0%

Continued:
Letters: A = miR-21 reporter; B = A549 tox; C = Nrf2 inh; D = p53 reactivation; E = Nrf2 activator; F = ClpP mod
(21) Fc1ccc(C(OCCN2CCN(CCCc3ccccc3)CC2)c2ccc(F)cc2)cc1
  A = x | B = u | C = 23µM* | D = x | E = -3% | F = x

(22) COc1ccc(N2C(=O)C3[C@@H](C2=O)C2(Cl)C(Cl)=C(Cl)C3(Cl)C2(OC)OC)cc1 (some centres not stated)
  A = 2% | B = 14% | C = 5% | D = -4% | E = -1% | F = 3.5µM*

(23) COc1ccc(NC2CC(=O)N(C(C)C)C2=O)cc1 (configuration not stated)
  A = -15% | B = -10% | C = u | D = 1% | E = 0% | F = 2%

(24) CC(=O)OCC12CC(OC(=O)CC(C)C)C(C)=CC1OC1C(O)C(OC(C)=O)C2(C)C12CO2 (configuration not stated)
  A = x | B = x | C = 0.021µM* | D = x | E = -2% | F = u

(25) COC(=O)C1=C(c2ccccc2OCc2ccccc2)C[C@@H]2CC[C@H]1N2C(=O)NCc1ccccc1
  A = x | B = 3% | C = u | D = -3% | E = 2% | F = -3%

(26) COC(=O)C1=C(c2ccc(F)cc2OCc2ccccc2)C[C@@H]2CC[C@H]1N2C(=O)NCc1cccc(F)c1
  A = x | B = -18% | C = u | D = 10% | E = 0% | F = -2%

(27) COC(=O)C1=C(c2ccccc2OCc2ccccc2)C[C@@H]2CC[C@H]1N2C(=O)NCc1ccc(Br)cc1
  A = x | B = -17% | C = 21µM* | D = 0% | E = -1% | F = -2%

(28) COC(=O)C1=C(c2ccccc2OCc2ccccc2)C[C@@H]2CC[C@H]1N2C(=O)NCc1ccc(C(F)(F)F)cc1
  A = x | B = -13% | C = 16µM* | D = 0% | E = -1% | F = -3%

(29) COC(=O)C1=C(c2ccc(F)cc2OCc2ccccc2)C[C@@H]2CC[C@H]1N2C(=O)NCc1ccccc1
  A = x | B = u | C = 16µM* | D = -13% | E = 1% | F = -5%

(30) COC(=O)C1=C(c2ccccc2OCc2ccccc2)C[C@@H]2CC[C@H]1N2C(=O)NCc1cccc(C(F)(F)F)c1
  A = x | B = -16% | C = 16µM* | D = -6% | E = -1% | F = -1%

Single records, as listed above:
Fc1ccc(C(OCCN2CCN(CCCc3ccccc3)CC2)c2ccc(F)cc2)cc1 as listed: miR-21 reporter: x; A549 tox: u; Nrf2 inh: 23µM*; p53 reactivation: x; Nrf2 activator: -3%; ClpP mod: x
COc1ccc(N2C(=O)C3[C@@H](C2=O)C2(Cl)C(Cl)=C(Cl)C3(Cl)C2(OC)OC)cc1 (some centres not stated) as listed: miR-21 reporter: 2%; A549 tox: 14%; Nrf2 inh: 5%; p53 reactivation: -4%; Nrf2 activator: -1%; ClpP mod: 3.5µM*

Continued.
Letters: A = miR-21 reporter; B = A549 tox; C = Nrf2 inh; D = p53 reactivation; E = Nrf2 activator; F = ClpP mod
(31) Cc1onc(-c2ccccc2Cl)c1C(=O)OCC(=O)c1ccc2c(c1)OCCO2
  A = 8% | B = -15% | C = u | D = 3% | E = -1% | F = -12%

(32) COc1ccccc1CNC(=O)CCC1N=C2c3ccccc3N=C(SCc3cccc(Cl)c3)N2C1=O (configuration not stated)
  A = u | B = 9% | C = 9%[9.27 µM] | D = x | E = 5% | F = u

(33) COC(=O)C1=C(c2ccc(F)cc2OCc2ccccc2)C[C@@H]2CC[C@H]1N2C(=O)NCc1ccc(C(F)(F)F)cc1
  A = x | B = -9% | C = 18µM* | D = 3% | E = 5% | F = -4%

(34) COC(=O)C1=C(c2ccc(F)cc2OCc2ccccc2)C[C@@H]2CC[C@H]1N2C(=O)NCc1ccc2c(c1)OCO2
  A = x | B = -17% | C = 18µM* | D = -11% | E = 0% | F = -3%

(35) COC(=O)C1=C(c2ccc(F)cc2OCc2ccccc2)C[C@@H]2CC[C@H]1N2C(=O)NCc1ccccc1OC
  A = x | B = -15% | C = u | D = 3% | E = 6% | F = -1%

(36) COc1ccc(CCNc2nc3ccc(Cl)cc3n3cnnc23)cc1OC
  A = -2% | B = 0% | C = u | D = x | E = 1% | F = 20%

(37) Cc1cc(N2CCCCC2)nc2ccc(NC(=O)CCC(=O)N3CCN(c4cccc(Cl)c4)CC3)cc12
  A = 16% | B = -15% | C = u | D = x | E = 1% | F = 32µM*

(38) CN1CCc2cc(O)cc3c2[C@H]1Cc1ccc(O)c(O)c1-3
  A = x | B = -2% | C = -9% | D = x | E = 4% | F = 28µM*!
